From patent US20040101900A1, “Assay for rapid detection of TNT” (published 2004)

Test system: anti-TNT antibody A1.1.1
Assay: plate-based homogenous cross reactivity assay in PBS
Settings: homogeneous format; for Percent cross-reactivity: PBS, calculated from the concentrations corresponding to half of the maximum signal, 7 to 5000 μg/L; for cross reactivity (in words): FIG. 5, within the error of the assay
Procedure: Wells of white 96-well plates (microfluor 2, Dynex) were blocked with a solution of 1% bovine serum albumin (BSA) in Tris buffered saline (50 mM Tris-HCL, 105 mM NaCl, pH 7.5; TBS) for at least 2 hours. The blocking solution was removed and 0.33 pmol of anti-TNT antibody (A1.1.1 or 11B3) in 25 μl PBS was added to each of a series of wells followed by 2.5 pmol Cy5-DAP-TNP (in 25 μl PBS). Next, 50 μl solutions of TNT (in PBS) were added to test wells to final concentrations spanning 0.05 ng/ml to 10,000 ng/ml. Controls with 50 μl PBS in place of TNT solution were also performed. The fluorescence was read in a SpectraFluor Plus microtiter plate reader (Tecan) using a 620 nm excitation filter (10 nm band pass) and a 670 nm (25 nm band pass) emission filter. Control wells containing no antibody were typically included in each run. Fluorescence data were background corrected by taking the difference between emission values obtained for wells with TNT and control wells to which only PBS buffer was added.
Plate-based homogeneous assays were also performed with artificial seawater substituted for PBS as the assay medium. Additionally, plate-based homogenous cross reactivity assays were carried out in PBS under identical conditions using known TNT breakdown products, structurally related nitroaromatic compounds, or other nitro based explosives in place of TNT to test assay specificity. The TNT related compounds 2-amino-4,6-dinitrotoluene (2A-4,6-DNT), […] ([…] ), […] ([…] ), […] ([…] ), and […] ([…] ), and the explosive […] (RDX) were examined. Concentrations between 7 and 5000 μg/L were used to construct a curve for each of the compounds (see FIG. 5). […] .
Six compounds, either structurally related to TNT or other explosives were examined in both plate assay formats to explore antibody specificity in these formats. […] CHEM., Vol. 364, Issue 1/2, pp. 113-120 (1999); and Upvan Narang, Paul R. Gauger & Frances S. Ligler, A Displacement Flow Immunosensor for Explosive Detection Using Microcapillaries, Anal. Chem., Vol. 69, pp. 2779-2785 (1997), both of which are incorporated herein by reference.

Molecule | Percent cross-reactivity | cross reactivity (in words)
O=[N+]([O-])c1cc([N+](=O)[O-])cc([N+](=O)[O-])c1 | 19% | 
O=[N+]([O-])N1CN([N+](=O)[O-])CN([N+](=O)[O-])C1 | no cross-reactivity | no cross reactivity
Cc1c([N+](=O)[O-])cccc1[N+](=O)[O-] | 0.3% | no cross reactivity
2,4,6-trinitrophenyl-n-methylnitramine | 45% | cross-reacting the most
Cc1ccc([N+](=O)[O-])cc1[N+](=O)[O-] | 5% | 

This is a selection: effects in other tests are not listed, and their absence says nothing.
